According to PubChem BioAssay AID1423 (NMMLSC, 2008):
The entries are a selection whose mix differs from that of the whole data set. Calls of active or inactive are those of the source. No stated cut-off is given here; in the data, active means response below about 60% or above about 140%; inactive means in between.

By UniProt entry, the sequences of proteins in these tests, tags left out.
UniProt P09471, whole entry, looked up: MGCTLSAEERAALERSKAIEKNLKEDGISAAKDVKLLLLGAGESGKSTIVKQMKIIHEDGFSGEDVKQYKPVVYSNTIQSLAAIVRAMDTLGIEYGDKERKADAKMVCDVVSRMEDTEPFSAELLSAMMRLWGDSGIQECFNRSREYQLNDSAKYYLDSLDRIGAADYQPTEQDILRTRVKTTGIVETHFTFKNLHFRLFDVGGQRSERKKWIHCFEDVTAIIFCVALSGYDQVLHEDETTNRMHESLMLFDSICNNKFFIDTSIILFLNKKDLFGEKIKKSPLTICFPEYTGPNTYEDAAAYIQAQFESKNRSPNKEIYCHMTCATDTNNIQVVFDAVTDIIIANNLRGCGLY

Target: Guanine nucleotide-binding protein G(o) subunit alpha (Homo sapiens) (UniProt P09471)
Assay: compounds changing RGS8 association with Galphao – biochemical, multiplexed bead flow cytometry, primary screen (AID 1423);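 further: Galphao activated as the GDP aluminium fluoride complex binding bead-coupled RGS8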
Conditions: at 10 µM, actives lie on both sides

`Cc1ccc(OP(=O)(Nc2nccs2)Oc2ccc(C)cc2)cc1` was tested. Which response (percent of control binding) did it give?
The response (percent of control binding) was inactive: 101%.

`CCN(/C(=N/P(=O)(N1CCOCC1)N1CCOCC1)N1CCOCC1)c1ccc(OC)cc1` was tested. Which response (percent of control binding) did it give?
Its response (percent of control binding) is inactive: 102%.

For `Nc1ccc([As](=O)(O)c2ccc(N)cc2)cc1`, which response (percent of control binding) is on record?
Its response (percent of control binding) is inactive: 101%.

With `C[N+]1=C2C=CC=CC=C2SC12C([N+](=O)[O-])=CC([N+](=O)[O-])=C[C-]2[N+](=O)[O-]` (centres undefined) as the molecule, how does the response (percent of control binding) read?
Its response (percent of control binding) is inactive: 86%.

How did the response (percent of control binding) turn out when `CC1CCN(C(=O)Oc2c(Cl)cc(Cl)c3cccnc23)CC1` was run?
The response (percent of control binding) was inactive: 101%.

How did the response (percent of control binding) turn out when `CC(C)=N/N=C(\N)N[N+](=O)[O-]` was run?
Its response (percent of control binding) is inactive: 97.3%.

With `CN(C)C(=O)OCCc1n(C)cc[n+]1C` as the molecule, how does the response (percent of control binding) read?
The response (percent of control binding) was inactive: 103%.

`COc1ccc(C2=NCC(CBr)S2)cc1` (centres undefined) was tested. Which response (percent of control binding) did it give?
Its response (percent of control binding) is inactive: 106%.

How did the response (percent of control binding) turn out when `Cc1ccc(NP(=O)(Oc2ccccc2)Oc2ccccc2)nc1` was run?
The response (percent of control binding) was inactive: 104%.

How did the response (percent of control binding) turn out when `CCc1nc2c(n1)c1c(non1O)c1c2no[n+]1[O-]` was run?
Its response (percent of control binding) is inactive: 104%.

Which response (percent of control binding) does the source give for `O=[N+]([O-])c1cc([N+](=O)[O-])c(CCNc2ccccc2)c([N+](=O)[O-])c1` here?
The response (percent of control binding) was inactive: 100%.

`O=[N+]([O-])c1cccc2n[nH]nc12` was tested. Which response (percent of control binding) did it give?
Its response (percent of control binding) is inactive: 100%.

Which response (percent of control binding) does the source give for `CC(=O)N1C2C3N(C(C)=O)C1C1N(C(C)=O)C(C(N1C(C)=O)N3C(C)=O)N2C(C)=O` here?
The response (percent of control binding) was inactive: 102%.

How did the response (percent of control binding) turn out when `O=[N+]([O-])c1ncn(CCn2ncnc2[N+](=O)[O-])n1` was run?
Its response (percent of control binding) is inactive: 102%.

For `CC(C)(C)C(=O)NC(Sc1ccncn1)C(Cl)(Cl)Cl` (centres undefined), which response (percent of control binding) is on record?
Its response (percent of control binding) is inactive: 99.2%.

For `O=C(O)CNc1ccc([As](=O)(O)O)cc1`, which response (percent of control binding) is on record?
The response (percent of control binding) was inactive: 115%.

With `O=[N+]([O-])c1cccc(NC2=NCC(CBr)S2)c1` (centres undefined) as the molecule, how does the response (percent of control binding) read?
Its response (percent of control binding) is inactive: 101%.

How did the response (percent of control binding) turn out when `O=C(Nc1cc([As](=O)(O)O)ccc1O)c1ccccc1` was run?
The response (percent of control binding) was inactive: 105%.

With `O=[As](O)(c1ccccc1)c1ccc(O)cc1` as the molecule, how does the response (percent of control binding) read?
Its response (percent of control binding) is inactive: 89.8%.

`O=[N+]([O-])c1ncn(CCn2cnc([N+](=O)[O-])n2)n1` was tested. Which response (percent of control binding) did it give?
The response (percent of control binding) was inactive: 98.1%.

For `CC(=O)NC(SC(=S)N(C)C)C(Cl)(Cl)Cl` (centres undefined), which response (percent of control binding) is on record?
The response (percent of control binding) was inactive: 103%.

How did the response (percent of control binding) turn out when `O=C(OC1CN2CCC1CC2)c1cccc(Cl)c1` (centres undefined) was run?
Its response (percent of control binding) is inactive: 100%.

How did the response (percent of control binding) turn out when `Nc1ccc([As](=O)(O)c2ccc([N+](=O)[O-])cc2)cc1` was run?
Its response (percent of control binding) is inactive: 101%.

How did the response (percent of control binding) turn out when `C(Cc1nn[nH]n1)Cc1nn[nH]n1` was run?
The response (percent of control binding) was inactive: 103%.

For `O=P(Nc1ccccn1)(c1ccc(Br)cc1)c1ccc(Br)cc1`, which response (percent of control binding) is on record?
The response (percent of control binding) was inactive: 93.9%.

`O=P(Nc1nc2ccccc2s1)(c1ccccc1)c1ccccc1` was tested. Which response (percent of control binding) did it give?
Its response (percent of control binding) is inactive: 99.8%.

For `C[C@H]1OP(=O)(Oc2ccccc2)[C@H](O)[C@H](O)[C@H]1N=[N+]=[N-]` (some centres undefined), which response (percent of control binding) is on record?
Its response (percent of control binding) is inactive: 97.4%.

How did the response (percent of control binding) turn out when `CC(C)C(=O)NC(Sc1ccccc1)C(Cl)(Cl)Cl` (centres undefined) was run?
The response (percent of control binding) was inactive: 102%.

For `O=P(Nc1nccs1)(c1ccccc1)c1ccccc1`, which response (percent of control binding) is on record?
Its response (percent of control binding) is inactive: 96.6%.

How did the response (percent of control binding) turn out when `c1nnnn1CCn1cnnn1` was run?
Its response (percent of control binding) is inactive: 92.8%.

With `C[C@@H]1C=CCP(=O)(Oc2ccccc2)O1` (some centres undefined) as the molecule, how does the response (percent of control binding) read?
Its response (percent of control binding) is inactive: 98.5%.

Which response (percent of control binding) does the source give for `C[C@H]1OP(=O)(Oc2ccccc2)C[C@@H]2O[C@@H]21` (some centres undefined) here?
Its response (percent of control binding) is inactive: 101%.

For `CC(=O)Nc1ccc([As](=O)(O)O)c(O)c1`, which response (percent of control binding) is on record?
The response (percent of control binding) was inactive: 101%.

With `CC(=O)Nc1ccc(Oc2c([N+](=O)[O-])cc([N+](=O)[O-])cc2[N+](=O)[O-])cc1` as the molecule, how does the response (percent of control binding) read?
Its response (percent of control binding) is inactive: 102%.

For `O=P1(Nc2nc3ccc(Cl)cc3s2)COc2ccccc2O1` (centres undefined), which response (percent of control binding) is on record?
The response (percent of control binding) was inactive: 101%.

Which response (percent of control binding) does the source give for `CCOc1ccc(C2=NCC(CBr)S2)cc1` (centres undefined) here?
The response (percent of control binding) was inactive: 112%.

For `CC(C)(C)C(=O)NC(Sc1ccccc1)C(Cl)(Cl)Cl` (centres undefined), which response (percent of control binding) is on record?
Its response (percent of control binding) is inactive: 98.7%.

How did the response (percent of control binding) turn out when `CCC(=O)N1C2C3N(C(=O)CC)C1C1N(C(=O)CC)C(C(N1C(=O)CC)N3C(=O)CC)N2C(=O)CC` was run?
Its response (percent of control binding) is inactive: 111%.

`COC(=O)c1cc2c(s1)N=C(c1ccccc1)N(C)P2(=O)N1CCOCC1` (centres undefined) was tested. Which response (percent of control binding) did it give?
Its response (percent of control binding) is inactive: 103%.

`Cc1ccc(OP(=O)(Nc2ccccn2)Oc2ccc(C)cc2)cc1` was tested. Which response (percent of control binding) did it give?
Its response (percent of control binding) is inactive: 103%.

For `CC(=O)NC(SC(=S)N(CC(C)C)CC(C)C)C(Cl)(Cl)Cl` (centres undefined), which response (percent of control binding) is on record?
Its response (percent of control binding) is inactive: 104%.

With `Cc1ccccc1OP(=O)(Nc1ccccn1)Oc1ccccc1C` as the molecule, how does the response (percent of control binding) read?
The response (percent of control binding) was inactive: 98.5%.

With `CN(C)C(=O)Oc1noc2ccccc12` as the molecule, how does the response (percent of control binding) read?
The response (percent of control binding) was inactive: 95.4%.

For `O=c1c2cc([N+](=O)[O-])ccc2[nH]c2c([N+](=O)[O-])cc([N+](=O)[O-])cc12`, which response (percent of control binding) is on record?
Its response (percent of control binding) is inactive: 102%.

For `c1ccc(-c2nn[nH]n2)c(-c2nn[nH]n2)c1`, which response (percent of control binding) is on record?
Its response (percent of control binding) is active: 48.7%.

Which response (percent of control binding) does the source give for `CCOC(=O)NC(Sc1ccccc1)C(Cl)(Cl)Cl` (centres undefined) here?
The response (percent of control binding) was inactive: 92.9%.

`Cc1ccc(NP(=O)(Oc2cccc(C)c2)Oc2cccc(C)c2)nc1` was tested. Which response (percent of control binding) did it give?
Its response (percent of control binding) is inactive: 102%.

For `CCNC(=S)/N=C(\N)N[N+](=O)[O-]`, which response (percent of control binding) is on record?
The response (percent of control binding) was inactive: 97.1%.

How did the response (percent of control binding) turn out when `O=C(NC1CCS(=O)(=O)C1)NP(=S)(Oc1ccccc1)Oc1ccccc1` (centres undefined) was run?
The response (percent of control binding) was inactive: 101%.
